Series [1] can be described thus: Prodrug to drug conversion half-life in vitro in PBS at pH 7.4 and 37° C. (UPLC-UV-MS). It counts as physicochemical. The settings on record: buffer, pH 7.4, prodrug to parent drug conversion, PBS pH 7.4, 37° C., first order T½. The procedure: The assay was performed to investigate the conversion half-life of prodrug to drug of the prodrugs of the invention.
Peptide stock solutions were prepared by dissolving freeze-dried powder in PBS buffer to a target of 200 μM. PBS-buffer was Dulbecco's Phosphate Buffered Saline without CaCl2 and MgCl2, gibco 14190-094 adjusted to pH=7.4. The pH of the peptide stock solutions was adjusted to 7.4 with 0.02 M HCl or 0.02M NaOH. Samples were filled in Agilent HPLC vials with fixed insert. Vials were capped to prevent evaporation. The HPLC vials were incubated at 37° C. and samples were withdrawn at different time points over a period of 2 weeks, flash frozen at −80° C., and stored at −20° C. until analysis.
Sample analysis was carried out using UPLC coupled to UV detection at 215 nm and MS (UPLC-UV-MS). One μl of sample was injected on to a Waters Acquity UPLC with a flow-through-needle injection system and on to a Waters Acquity CSH C18 column (1*150 mm), with a particle size of 1.7 μm and held at 55° C. A flow-rate of 100 μl/min was delivered with a Binary solvent manager pump having 0.1% formic acid in water as solvent A and 0.1% formic acid in acetonitrile as solvent B. Gradient elution was carried out using 15-32% B from 0 to 4 min followed by 32 to 48% B from 4 to 54 min. […]

Series [2] can be described thus: Oral bioavailability: exposure following oral administration of SNAC-based tablets in Beagle dogs. The settings on record: dog, in vivo. The procedure: This assay was performed to measure the oral bioavailability of a compound. The assay determined the exposure of test compound following oral administration in Beagle dogs as described by relevant pharmacokinetic parameters and plasma concentration curves. […] The test compound was spray-dried as neutral sodium salt (pH 7-8). Dry granulation was carried out by roller compaction on a […]. […] Determination of the absorption following oral administration: eight (8) male Beagle dogs, 1 to 5 years of age and weighing approximately 10-12 kg at the start of the studies, were used. The dogs were group-housed in pens (12 hours light:12 hours dark), and fed individually and restrictedly once daily with Royal Canin Medium Adult dog (Royal Canin Products, China Branch, or Brogaarden A/S, Denmark). Exercise and group social were permitted daily, whenever possible. The dogs were used for repeated pharmacokinetic studies with a suitable wash-out period between successive dosing. An appropriate acclimatisation period was given prior to initiation of the first pharmacokinetic study. All handling, dosing and blood sampling of the animals were performed by trained and skilled staff. […] Bioanalysis was carried out as follows: plasma concentrations of test compound were assayed by plasma protein precipitation and analysed by liquid chromatography-mass spectrometry (LC-MS). […]

Consider one compound from US20250304645A1, “Prodrugs of GLP-1 Polypeptide and Uses Thereof” (Novo Nordisk A/S, priority 2022, published 2025).

By half-life is commonly meant how long it takes for the measured level to halve.

Turning to `CCCCCCCCCCCCCCCCCC(=O)NCCCC[C@@H](N)C(=O)N(C)CC(=O)N[C@@H](Cc1c[nH]cn1)C(=O)NC(C)(C)C(=O)N[C@@H](CCC(=O)O)C(=O)NCC(=O)N[C@H](C(=O)N[C@@H](Cc1ccccc1)C(=O)N[C@H](C(=O)N[C@@H](CO)C(=O)N[C@@H](CC(=O)O)C(=O)N[C@H](C(=O)N[C@@H](CO)C(=O)N[C@@H](CO)C(=O)N[C@@H](Cc1ccc(O)cc1)C(=O)N[C@@H](CC(C)C)C(=O)N[C@@H](CCC(=O)O)C(=O)NCC(=O)N[C@@H](CCC(N)=O)C(=O)N[C@@H](C)C(=O)N[C@@H](C)C(=O)N[C@@H](CCCCNC(=O)COCCOCCNC(=O)COCCOCCNC(=O)CC[C@H](NC(=O)CCCCCCCCCCCCCCCCC(=O)O)C(=O)O)C(=O)N[C@@H](CCC(=O)O)C(=O)N[C@@H](Cc1ccccc1)C(=O)N[C@H](C(=O)N[C@@H](C)C(=O)N[C@@H](Cc1c[nH]c2ccccc12)C(=O)N[C@@H](CC(C)C)C(=O)N[C@H](C(=O)N[C@@H](CCCNC(=N)N)C(=O)NCC(=O)N[C@@H](CCCNC(=N)N)C(=O)NCC(=O)O)C(C)C)[C@@H](C)CC)C(C)C)[C@@H](C)O)[C@@H](C)O` [Chem. 36, N{ε^26}-[2-[2-[2-[[2-[2-[2-[[(4S)-4-carboxy-4-(17-carboxyheptadecanoylamino)butanoyl]amino]ethoxy]ethoxy]acetyl]amino]ethoxy]ethoxy]acetyl]-N{ε}-(octadecanoyl)D-Lys-Sar-[Aib8,Arg34]-GLP-1-(7-37)-peptide], the half-life in series [1] was 60 h. In addition, in series [2], the AUC/Dose worked out at 1.6 kg·h/L and the Cmax/Dose came out at 0.10 kg/L.
